Laboratory results published in patent US9656017B2, “Infusion delivery devices and methods” (priority 2014, dated 2017).

How the values were obtained:
[1] = cited from earlier work
[2] = subcutaneous doses 30 μg, 60 μg and 90 μg (FIG. 2); cited from earlier work
[3] = 24-hour plasma profiles of endogenous insulin and amylin in healthy adults, basal/bolus AUC analysis; format: in vivo, human; settings: endogenous hormone, based upon AUCs, unadjusted
Text: This difference in bolus/basal ratios was quantified by estimating the AUCs of the basal and bolus components, which would reflect the 24-hour hormone exposures attributable to these components. FIG. 6 and FIG. 7 show this basal/bolus allocation for amylin and insulin when the lowest observed levels of endogenous hormone are used as the upper boundary of the basal area.
Comparing AUCs results in the discovery that there is a striking difference between hormones with respect to the importance of bolus exposure compared to basal exposure, as summarized in Table 1. Measured as a ratio of bolus-to-basal exposure, the insulin bolus component is about three times as important as that of amylin. Measured as percentages of total daily hormone exposures, the “pancreatic insulin pump” secretes about twice as much insulin during mealtime boluses compared to basal, whereas the “pancreatic amylin pump” is set to the reverse ratio. See the example in Table 1.
Note that these calculations are based upon the specific clinical study shown in FIG. 5, and so the quantities presented here are used to illustrate the difference between insulin and amylin plasma levels. […]
It is noted with regard to Table 1 that both the plasma insulin and amylin were measured with immunometric assays that are normally highly specific but are subject to cross reactions with other analytes that contain both binding sites. […]

Compound	SC half-life ([1]; subcutaneous)	clearance from plasma after injection [2]	Bioavailability ([1]; subcutaneous (SC) injections)	Basal Level [3]
CC[C@H](C)[C@H](NC(=O)[C@@H]1CCCN1C(=O)CNC(=O)[C@H](Cc1ccccc1)NC(=O)[C@H](CC(N)=O)NC(=O)[C@H](CC(N)=O)NC(=O)[C@H](CO)NC(=O)[C@H](CO)NC(=O)[C@H](Cc1c[nH]cn1)NC(=O)[C@@H](NC(=O)[C@H](CC(C)C)NC(=O)[C@H](Cc1ccccc1)NC(=O)[C@H](CC(N)=O)NC(=O)[C@H](C)NC(=O)[C@H](CC(C)C)NC(=O)[C@H](CCCNC(=N)N)NC(=O)[C@H](CCC(N)=O)NC(=O)[C@@H](NC(=O)[C@H](C)NC(=O)[C@@H]1CSSC[C@H](NC(=O)[C@@H](N)CCCCN)C(=O)N[C@@H](CC(N)=O)C(=O)N[C@@H]([C@@H](C)O)C(=O)N[C@@H](C)C(=O)N[C@@H]([C@@H](C)O)C(=O)N1)[C@@H](C)O)C(C)C)C(=O)N[C@@H](CC(C)C)C(=O)N1CCC[C@H]1C(=O)N1CCC[C@H]1C(=O)N[C@H](C(=O)N[C@@H](CC(N)=O)C(=O)N[C@H](C(=O)NCC(=O)N[C@@H](CO)C(=O)N[C@@H](CC(N)=O)C(=O)N[C@H](C(=O)N[C@@H](Cc1ccc(O)cc1)C(N)=O)[C@@H](C)O)C(C)C)[C@@H](C)O [pramlintide, 25,28,29Pro-h-amylin]	48 min	largely cleared plasma within three hours		
CC[C@H](C)[C@H](NC(=O)[C@H](C)NC(=O)CNC(=O)[C@H](Cc1ccccc1)NC(=O)[C@H](CC(N)=O)NC(=O)[C@H](CC(N)=O)NC(=O)[C@H](CO)NC(=O)[C@H](CO)NC(=O)[C@H](Cc1c[nH]cn1)NC(=O)[C@@H](NC(=O)[C@H](CC(C)C)NC(=O)[C@H](Cc1ccccc1)NC(=O)[C@H](CC(N)=O)NC(=O)[C@H](C)NC(=O)[C@H](CC(C)C)NC(=O)[C@H](CCCNC(=N)N)NC(=O)[C@H](CCC(N)=O)NC(=O)[C@@H](NC(=O)[C@H](C)NC(=O)[C@@H]1CSSC[C@H](NC(=O)[C@@H](N)CCCCN)C(=O)N[C@@H](CC(N)=O)C(=O)N[C@@H]([C@@H](C)O)C(=O)N[C@@H](C)C(=O)N[C@@H]([C@@H](C)O)C(=O)N1)[C@@H](C)O)C(C)C)C(=O)N[C@@H](CC(C)C)C(=O)N[C@@H](CO)C(=O)N[C@@H](CO)C(=O)N[C@H](C(=O)N[C@@H](CC(N)=O)C(=O)N[C@H](C(=O)NCC(=O)N[C@@H](CO)C(=O)N[C@@H](CC(N)=O)C(=O)N[C@H](C(=O)N[C@@H](Cc1ccc(O)cc1)C(N)=O)[C@@H](C)O)C(C)C)[C@@H](C)O [Amylin]			35%	9.3 pM
